Data from patent US12465652B2 (AMGEN INC., priority 2017, dated 2025).

Chains of the proteins cited; added tags and fusions are not shown. Residues count along the entry.
UniProt P43220, 24-463 limits assumed: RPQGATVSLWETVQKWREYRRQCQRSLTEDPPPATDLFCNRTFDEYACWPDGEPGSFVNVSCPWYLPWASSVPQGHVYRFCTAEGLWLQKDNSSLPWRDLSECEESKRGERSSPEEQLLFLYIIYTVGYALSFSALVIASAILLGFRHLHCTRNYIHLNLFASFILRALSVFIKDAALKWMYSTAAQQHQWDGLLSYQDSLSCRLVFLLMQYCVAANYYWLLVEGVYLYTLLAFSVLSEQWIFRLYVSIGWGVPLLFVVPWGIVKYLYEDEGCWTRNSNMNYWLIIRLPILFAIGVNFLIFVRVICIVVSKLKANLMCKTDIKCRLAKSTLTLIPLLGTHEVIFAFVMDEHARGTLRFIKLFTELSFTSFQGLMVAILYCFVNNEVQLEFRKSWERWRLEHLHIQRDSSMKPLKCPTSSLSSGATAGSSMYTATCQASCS

How the values were obtained:
human GLP-IR [1] = target: T1, human GLP-IR (Homo sapiens, UniProt P43220); experiment: GLP1 activity | EC50 (M)
Description: Table printed on a drawing sheet, FIG. 1A Head of the field: GLP1 activity | EC50 (M) The patent's description of the figure: FIG. 1A-1B: Synthetic Peptides (FIG. 1A discloses SEQ ID NOS 3948 and 3275-3298 and FIG. 1B discloses SEQ ID NOS 3948 and 3299-3302, all respectively, in order of appearance) First copying reader's note: The first head row prints a reference sequence (residues at positions 7-35) above the position numbers; two fully empty rows separate groups of peptides. Where the first naming reader finds the target: passage: CHOK1 cells stably expressing the human GLP-IR were used to measure peptide or recombinant fusion-induced cAMP production

hGLP1R = hGLP1R (Homo sapiens, UniProt P43220); experiment: hGLP1R EC50 (pM)
Description: Table printed on a drawing sheet, FIG. 2
Head of the field: hGLP1R EC50 (pM)
Where the first naming reader finds the target: head: hGLP1R EC50 (pM)

human GLP-IR [2] = target: T1, human GLP-IR; experiment: GLP1 activity | EC50 (pM)
Description: Where the first naming reader finds the target: passage: CHOK1 cells stably expressing the human GLP-IR were used to measure peptide or recombinant fusion-induced cAMP production

EC50 (human GLP-IR [1]) | Structure (SMILES) | further results
0.0965 nM | CC[C@H](C)[C@H](NC(=O)[C@H](Cc1ccccc1)NC(=O)[C@H](CCC(=O)O)NC(=O)[C@H](CCCCN)NC(=O)[C@H](C)NC(=O)[C@H](C)NC(=O)[C@H](CCC(N)=O)NC(=O)CNC(=O)[C@H](CCC(=O)O)NC(=O)[C@H](CC(C)C)NC(=O)[C@H](Cc1ccc(O)cc1)NC(=O)[C@H](CO)NC(=O)[C@H](CO)NC(=O)[C@@H](NC(=O)[C@H](CC(=O)O)NC(=O)[C@H](CO)NC(=O)[C@@H](NC(=O)[C@H](Cc1ccccc1)NC(=O)[C@@H](NC(=O)CNC(=O)[C@H](CC(C)C)NC(=O)CNC(=O)[C@@H](N)Cc1c[nH]cn1)[C@@H](C)O)[C@@H](C)O)C(C)C)C(=O)N[C@@H](C)C(=O)N[C@@H](Cc1c[nH]c2ccccc12)C(=O)N[C@@H](CC(C)C)C(=O)N[C@H](C(=O)N[C@@H](CCCCN)C(=O)NCC(=O)O)C(C)C [3166735#1, HGLGTFTSDVSSYLEGQAAKEFIAWLVKG] | –
0.0838 nM | CC[C@H](C)[C@H](NC(=O)[C@H](Cc1ccccc1)NC(=O)[C@H](CCC(=O)O)NC(=O)[C@H](CCCCN)NC(=O)[C@H](C)NC(=O)[C@H](C)NC(=O)[C@H](CCC(N)=O)NC(=O)CNC(=O)[C@H](CCC(=O)O)NC(=O)[C@H](CC(C)C)NC(=O)[C@H](Cc1ccc(O)cc1)NC(=O)[C@H](CO)NC(=O)[C@H](CO)NC(=O)[C@@H](NC(=O)[C@H](CC(=O)O)NC(=O)[C@H](CO)NC(=O)[C@@H](NC(=O)[C@H](Cc1ccccc1)NC(=O)[C@@H](NC(=O)CNC(=O)[C@@H](NC(=O)CNC(=O)[C@@H](N)Cc1c[nH]cn1)C(C)C)[C@@H](C)O)[C@@H](C)O)C(C)C)C(=O)N[C@@H](C)C(=O)N[C@@H](Cc1c[nH]c2ccccc12)C(=O)N[C@@H](CC(C)C)C(=O)N[C@H](C(=O)N[C@@H](CCCCN)C(=O)NCC(=O)O)C(C)C [3166736#1, HGVGTFTSDVSSYLEGQAAKEFIAWLVKG] | –
– | CC[C@H](C)[C@H](NC(=O)[C@H](Cc1ccccc1)NC(=O)[C@H](CCC(=O)O)NC(=O)[C@H](CCCCN)NC(=O)[C@H](C)NC(=O)[C@H](C)NC(=O)[C@H](CCC(N)=O)NC(=O)CNC(=O)[C@H](CCC(=O)O)NC(=O)[C@H](CC(C)C)NC(=O)[C@H](Cc1ccc(O)cc1)NC(=O)[C@H](CO)NC(=O)[C@H](CO)NC(=O)[C@@H](NC(=O)[C@H](CC(=O)O)NC(=O)[C@H](CO)NC(=O)[C@@H](NC(=O)[C@H](Cc1ccccc1)NC(=O)[C@@H](NC(=O)CNC(=O)[C@@H](N)CCC(=O)O)[C@@H](C)O)[C@@H](C)O)C(C)C)C(=O)N[C@@H](C)C(=O)N[C@@H](Cc1c[nH]c2ccccc12)C(=O)N[C@@H](CC(C)C)C(=O)N[C@H](C(=O)N[C@@H](CCCCN)C(=O)NCC(=O)N[C@@H](CCCNC(=N)N)C(=O)NCC(=O)O)C(C)C [3161006#1, EGTFTSDVSSYLEGQAAKEFIAWLVKGRG] | EC50 (hGLP1R): 40 nM
– | CC[C@H](C)[C@H](NC(=O)[C@H](Cc1ccccc1)NC(=O)[C@H](CCC(=O)O)NC(=O)[C@H](CCCCN)NC(=O)[C@H](C)NC(=O)[C@H](C)NC(=O)[C@H](CCC(N)=O)NC(=O)CNC(=O)[C@H](CCC(=O)O)NC(=O)[C@H](CC(C)C)NC(=O)[C@H](Cc1ccc(O)cc1)NC(=O)[C@H](CO)NC(=O)[C@H](CO)NC(=O)[C@@H](NC(=O)[C@H](CC(=O)O)NC(=O)[C@H](CO)NC(=O)[C@@H](NC(=O)[C@H](Cc1ccccc1)NC(=O)[C@@H](NC(=O)CNC(=O)[C@H](CCC(=O)O)NC(=O)[C@H](C)N)[C@@H](C)O)[C@@H](C)O)C(C)C)C(=O)N[C@@H](C)C(=O)N[C@@H](Cc1c[nH]c2ccccc12)C(=O)N[C@@H](CC(C)C)C(=O)N[C@H](C(=O)N[C@@H](CCCCN)C(=O)NCC(=O)N[C@@H](CCCNC(=N)N)C(=O)NCC(=O)O)C(C)C [3161005#1, AEGTFTSDVSSYLEGQAAKEFIAWLVKGRG] | EC50 (hGLP1R): 3 nM
6.07 nM | CC[C@H](C)[C@H](NC(=O)[C@H](Cc1ccccc1)NC(=O)[C@H](CCC(=O)O)NC(=O)[C@H](CCCCN)NC(=O)[C@H](C)NC(=O)[C@H](C)NC(=O)[C@H](CCC(N)=O)NC(=O)CNC(=O)[C@H](CCC(=O)O)NC(=O)[C@H](CC(C)C)NC(=O)[C@H](Cc1ccc(O)cc1)NC(=O)[C@H](CO)NC(=O)[C@H](CO)NC(=O)[C@@H](NC(=O)[C@H](CC(=O)O)NC(=O)[C@H](CO)NC(=O)[C@@H](NC(=O)[C@H](Cc1ccccc1)NC(=O)[C@@H](NC(=O)CNC(=O)[C@H](CCCCN)NC(=O)CNC(=O)[C@@H](N)Cc1c[nH]cn1)[C@@H](C)O)[C@@H](C)O)C(C)C)C(=O)N[C@@H](C)C(=O)N[C@@H](Cc1c[nH]c2ccccc12)C(=O)N[C@@H](CC(C)C)C(=O)N[C@H](C(=O)N[C@@H](CCCCN)C(=O)NCC(=O)O)C(C)C [3166742#1, HGKGTFTSDVSSYLEGQAAKEFIAWLVKG] | –
0.0538 nM | CC[C@H](C)[C@H](NC(=O)CNC(=O)[C@@H](N)Cc1c[nH]cn1)C(=O)NCC(=O)N[C@H](C(=O)N[C@@H](Cc1ccccc1)C(=O)N[C@H](C(=O)N[C@@H](CO)C(=O)N[C@@H](CC(=O)O)C(=O)N[C@H](C(=O)N[C@@H](CO)C(=O)N[C@@H](CO)C(=O)N[C@@H](Cc1ccc(O)cc1)C(=O)N[C@@H](CC(C)C)C(=O)N[C@@H](CCC(=O)O)C(=O)NCC(=O)N[C@@H](CCC(N)=O)C(=O)N[C@@H](C)C(=O)N[C@@H](C)C(=O)N[C@@H](CCCCN)C(=O)N[C@@H](CCC(=O)O)C(=O)N[C@@H](Cc1ccccc1)C(=O)N[C@H](C(=O)N[C@@H](C)C(=O)N[C@@H](Cc1c[nH]c2ccccc12)C(=O)N[C@@H](CC(C)C)C(=O)N[C@H](C(=O)N[C@@H](CCCCN)C(=O)NCC(=O)O)C(C)C)[C@@H](C)CC)C(C)C)[C@@H](C)O)[C@@H](C)O [3166743#1, HGIGTFTSDVSSYLEGQAAKEFIAWLVKG] | –
– | CC[C@H](C)[C@H](NC(=O)[C@H](Cc1ccccc1)NC(=O)[C@H](CCC(=O)O)NC(=O)[C@H](CCCCN)NC(=O)[C@H](C)NC(=O)[C@H](C)NC(=O)[C@H](CCC(N)=O)NC(=O)CNC(=O)[C@H](CCC(=O)O)NC(=O)[C@H](CC(C)C)NC(=O)[C@H](Cc1ccc(O)cc1)NC(=O)[C@H](CO)NC(=O)[C@H](CO)NC(=O)[C@@H](NC(=O)[C@H](CC(=O)O)NC(=O)[C@H](CO)NC(=O)[C@@H](NC(=O)[C@H](Cc1ccccc1)NC(=O)[C@@H](NC(=O)CNC(=O)[C@H](CCC(N)=O)NC(=O)CNC(=O)[C@@H](N)Cc1c[nH]cn1)[C@@H](C)O)[C@@H](C)O)C(C)C)C(=O)N[C@@H](C)C(=O)N[C@@H](Cc1c[nH]c2ccccc12)C(=O)N[C@@H](CC(C)C)C(=O)N[C@H](C(=O)N[C@@H](CCCCN)C(=O)NCC(=O)N[C@@H](CCCNC(=N)N)C(=O)NCC(=O)O)C(C)C [3161012#1, HGQGTFTSDVSSYLEGQAAKEFIAWLVKGRG] | EC50 (human GLP-IR [2]): 0.0041 nM
